The data set can be described thus: in vivo. The following applies: mouse, po, male mice.

Structures are written as SMILES.

A word on the LD50: it is the dose at which mortality reaches 50%. Low values mean a more toxic substance, high ones a less toxic substance. `CC(C)(C)c1cc(CCC(=O)OCC(COC(=O)CCc2cc(C(C)(C)C)c(O)c(C(C)(C)C)c2)(COC(=O)CCc2cc(C(C)(C)C)c(O)c(C(C)(C)C)c2)COC(=O)CCc2cc(C(C)(C)C)c(O)c(C(C)(C)C)c2)cc(C(C)(C)C)c1O` [Example 7, Tetra-(4-hydroxy-3,5-di-t.-butylphenyl-propionic acid)-pentaerythritol ester] returned an LD50 of over 8000 mg/kg.

For the origin of these results see patent US3969530A, “4-Hydroxy-3,5-di-alkyl-phenyl-propionic acid composition suitable as lipid lowering and anti-diabetic agents” (Hoechst Aktiengesellschaft, priority 1972, dated 1976).
